# Assay results: patent US10045529B2, “Quat cleaner with glycerin ether ethoxylates” (Ecolab USA Inc., priority 2012, dated 2018)
# Assay: Water solubility
# Assay type: physicochemical
row,Substance,% Soluble
1,2 Ethylhexyl glycerin ether [reference compound],Insoluble
2,2-Ethyl Hexanol Glycerin Ether Ethoxylate (3 moles) [2EHGE (3 EO)],100%
